Patent publication US10442819B2, “Tricyclic compounds as inhibitors of mutant IDH enzymes” (Merck Sharp & Dohme Corp., priority 2014, dated 2019)

Sequences of proteins named here, by UniProt entry; tags and fusion partners are left off.
UniProt O75874, whole entry R132H: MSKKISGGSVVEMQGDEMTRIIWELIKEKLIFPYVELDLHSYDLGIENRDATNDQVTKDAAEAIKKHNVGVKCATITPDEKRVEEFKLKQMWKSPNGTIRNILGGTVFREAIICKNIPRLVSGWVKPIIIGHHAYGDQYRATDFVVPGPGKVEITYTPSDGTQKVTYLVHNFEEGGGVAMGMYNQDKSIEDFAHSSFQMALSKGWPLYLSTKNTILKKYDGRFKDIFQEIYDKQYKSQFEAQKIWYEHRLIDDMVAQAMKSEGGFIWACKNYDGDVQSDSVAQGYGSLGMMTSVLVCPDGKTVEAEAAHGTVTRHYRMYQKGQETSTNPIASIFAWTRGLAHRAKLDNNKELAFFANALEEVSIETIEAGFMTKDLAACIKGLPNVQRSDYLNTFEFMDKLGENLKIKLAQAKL

Target: R132H mutant IDH1 enzyme (Homo sapiens (Human), UniProt O75874, R132H)
Experiment: R132H IDH1 Enzymatic Assay
Format: biochemical
Conditions: R132H mutant IDH1 enzyme 1.5 nM final; luminescence readout; read-out: IC50

Row | IC50 [nM] | Compound
1 | 11 | CC(C)O[C@H]1CC[C@H](C(=O)N2Cc3cccnc3Nc3ccc(C4=CCC(O)CC4)cc32)CC1 (stereo partly drawn) [Example 390, 4-(6-{[trans-4-(1-methylethoxy)cyclohexyl]carbonyl}-6,11-dihydro-5H-pyrido[2,3-b][1,5]benzodiazepin-8-yl)cyclohex-3-en-1-ol]
2 | 53 | CO[C@H]1CC[C@H](C(=O)N2Cc3cccnc3Nc3ccc(-c4cnc5c(c4)ncn5C)cc32)CC1 [Example 403, 6-[(trans-4-methoxycyclohexyl)carbonyl]-8-(3-methyl-3H-imidazo[4,5-b]pyridin-6-yl)-6,11-dihydro-5H-pyrido[2,3-b][1,5]benzodiazepine]
3 | 22 | COC(C)c1ccc2c(c1)N(C(=O)[C@H]1CC[C@H](OC(C)C)CC1)Cc1cccnc1N2 (stereo partly drawn) [Example 542, 8-(1-methoxyethyl)-6-{[trans-4-(1-methylethoxy)cyclohexyl]carbonyl}-6,11-dihydro-5H-pyrido[2,3-b][1,5]benzodiazepine]
4 | 48 | O=C([C@H]1CC[C@@H](N2CC(F)(F)C2)CC1)N1Cc2cccnc2Nc2ccc(C3CCOCC3)cc21 [Example 465, 6-{[cis-4-(3,3-difluoroazetidin-1-yl)cyclohexyl]carbonyl}-8-(tetrahydro-2H-pyran-4-yl)-6,11-dihydro-5H-pyrido[2,3-b][1,5]benzodiazepine]
5 | 276 | CO[C@H]1CC[C@H](C(=O)N2Cc3cccnc3Nc3ccc(-c4csc(C)n4)cc32)CC1 [Example 368, 6-[(trans-4-methoxycyclohexyl)carbonyl]-8-(2-methyl-1,3-thiazol-4-yl)-6,11-dihydro-5H-pyrido[2,3-b][1,5]benzodiazepine]
6 | 57 | O=C([C@@H]1CC[C@H](NC2(C(F)(F)F)CC2)CO1)N1Cc2cccnc2Nc2ccc(N3CCOCC3)cc21 (single isomer, unassigned) [Example 472]
7 | 930 | O=C(C1CCN(CC(F)F)CC1)N1Cc2cccnc2Nc2ccc(N3CCOCC3)cc21 [Example 552, [1-(2,2-Difluoroethyl)piperidin-4-yl][8-(morpholin-4-yl)-5,11-dihydro-6H-pyrido[2,3-b][1,5]benzodiazepin-6-yl]methanone]
8 | 768 | COCc1ccc2c(c1)N(C(=O)[C@H]1CC[C@H](OC)CC1)Cc1cccnc1N2 [Example 418, 6-[(Trans-4-methoxycyclohexyl)carbonyl]-8-(methoxymethyl)-6,11-dihydro-5H-pyrido[2,3-b][1,5]benzodiazepine]
9 | 9 | CC(C)O[C@H]1CC[C@H](C(=O)N2Cc3cccnc3Nc3ccc([C@@H]4COC[C@H]4C)cc32)OC1 [Example 539, ((2R,5S)-5-isopropoxytetrahydro-2H-pyran-2-yl)(8-((3R,4S)-4-methyltetrahydrofuran-3-yl)-5,11-dihydro-6H-benzo[b]pyrido[2,3-e][1,4]diazepin-6-yl)methanone]
10 | 582 | CO[C@H]1CC[C@H](C(=O)N2Cc3cccnc3Nc3ccc(-c4cncnc4)cc32)CC1 [Example 400, 6-[(Trans-4-methoxycyclohexyl)carbonyl]-8-pyrimidin-5-yl-6,11-dihydro-5H-pyrido[2,3-b][1,5]benzodiazepine]
11 | 11 | CC(C)O[C@H]1CC[C@H](C(=O)N2Cc3cccnc3Nc3ccc(C(C)OCC4COC(C)(C)C4)cc32)CC1 (stereo partly drawn) [Example 545, 8-{1-[(5,5-dimethyltetrahydrofuran-3-yl)methoxy]ethyl}-6-{[trans-4-(1-methylethoxy)cyclohexyl]carbonyl}-6,11-dihydro-5H-pyrido[2,3-b][1,5]benzodiazepine]

Continued, compound first:

Row | Compound | IC50 [nM]
12 | COC1CCC(C(=O)N2Cc3cccnc3Nc3ccc(N4CCC(OC)C(F)C4)cc32)CC1 (centres unmarked) [Example 209, 8-(3-fluoro-4-methoxypiperidin-1-yl)-6-[(4-methoxycyclohexyl)carbonyl]-6,11-dihydro-5H-pyrido[2,3-b][1,5]benzodiazepine] | 651
13 | CCCO[C@H]1CC[C@H](C(=O)N2Cc3cccnc3Nc3ccc(N4CC5CCC(C4)O5)cc32)CC1 [Example 313, 8-[8-oxa-3-azabicyclo[3.2.1]oct-3-yl]-6-[(trans-4-propoxycyclohexyl)carbonyl]-6,11-dihydro-5H-pyrido[2,3-b][1,5]benzodiazepine] | 43
14 | CO[C@@H]1CCN(c2ccc3c(c2)N(C(=O)[C@H]2CC[C@H](OC(C)C)CC2)Cc2cccnc2N3)C1 [Example 207, 8-[(3R)-3-methoxypyrrolidin-1-yl]-6-{[trans-4-(1-methylethoxy)cyclohexyl]car-bonyl}-6,11-dihydro-5H-pyrido[2,3-b][1,5]benzodiazepine] | 70
15 | CCO[C@H]1CC[C@H](C(=O)N2Cc3cccnc3Nc3ccc(N4CCOCC4)cc32)C1 [Example 63, 6-{[(1S,3S)-3-ethoxycyclopentyl]carbon-yl}-8-morpholin-4-yl-6,11-dihydro-5H-pyrido[2,3-b][1,5]benzodiazepine] | 487
16 | O=C(C1CCN(C2(C(F)(F)F)CC2)CC1)N1Cc2cccnc2Nc2ccc(N3CCOCC3)cc21 [Example 37, 8-morpholin-4-yl-6-({1-[1-(trifluoromethyl)cyclopropyl]piperidin-4-yl}carbonyl)-6,11-dihydro-5H-pyrido[2,3-b][1,5]benzodiazepine] | 21
17 | COC1CCC(C(=O)N2Cc3cccnc3Nc3ccc(N4CCC(OC)CC4)cc32)CC1 (centres unmarked) [Example 198, 6-[(4-methoxycyclohexyl)carbonyl]-8-(4-methoxypiperidin-1-yl)-6,11-dihydro-5H-pyrido[2,3-b][1,5]benzodiazepine] | 761
18 | CO[C@@H](C1CC1)[C@H]1CC[C@H](C(=O)N2Cc3cccnc3Nc3ccc(N4CCOCC4)cc32)CC1 [Example 170, 6-({Trans-4-[(S)-cyclopropyl(methoxy)methyl]cyclohexyl}carbonyl)-8-morpholin-4-yl-6,11-dihydro-5H-pyrido[2,3-b][1,5]benzodiazepine] | 70
19 | CO[C@H]1CC[C@H](C(=O)N2Cc3cccnc3Nc3ccc(N4C[C@H]5CC[C@@H](C4)O5)cc32)CC1 [Example 243, 6-[(trans-4-methoxycyclohexyl)carbonyl]-8-[(1R,5S)-8-oxa-3-azabicyclo[3.2.1]oct-3-yl]-6,11-dihydro-5H-pyrido[2,3-b][1,5]benzodiazepine] | 83
20 | CO[C@H]1CC[C@H](C(=O)N2Cc3cccnc3Nc3ccc(N4CCn5cncc5C4)cc32)CC1 [Example 276, 8-(5,6-dihydroimidazo[1,5-a]pyrazin-7(8H)-yl)-6-[(trans-4-methoxycyclohexyl)carbonyl]-6,11-dihydro-5H-pyrido[2,3-b][1,5]benzodiazepine] | 819
21 | COC1(C)CCN(c2ccc3c(c2)N(C(=O)[C@H]2CC[C@H](OC(C)C)CC2)Cc2cccnc2N3)CC1 [Example 208, 8-(4-methoxy-4-methylpiperidin-1-yl)-6-{[trans-4-(1-methylethoxy)cyclohexyl]car-bonyl}-6,11-dihydro-5H-pyrido[2,3-b][1,5]benzodiazepine] | 103
22 | CO[C@@H]1CO[C@@](C)(c2ccc3c(c2)N(C(=O)[C@H]2CC[C@H](OC(C)C)CO2)Cc2cccnc2N3)C1 (single isomer, unassigned) [Example 142] | 26
23 | O=C([C@H]1CC[C@H](C(F)(F)F)CC1)N1Cc2cccnc2Nc2ccccc21 [Example 67, 6-{[trans-4-(trifluoromethyl)cyclohex-yl]carbonyl}-6,11-dihydro-5H-pyrido[2,3-b][1,5]benzodiazepine] | 354
